Reference: patent US20110085986A1, “Diagnosis and treatment of epithelial cancers using labeled/conjugated progastrin peptides” (priority 2009, published 2011)

Amino acid sequences for entries named in this document (tags omitted).
UniProt Q07936, whole entry: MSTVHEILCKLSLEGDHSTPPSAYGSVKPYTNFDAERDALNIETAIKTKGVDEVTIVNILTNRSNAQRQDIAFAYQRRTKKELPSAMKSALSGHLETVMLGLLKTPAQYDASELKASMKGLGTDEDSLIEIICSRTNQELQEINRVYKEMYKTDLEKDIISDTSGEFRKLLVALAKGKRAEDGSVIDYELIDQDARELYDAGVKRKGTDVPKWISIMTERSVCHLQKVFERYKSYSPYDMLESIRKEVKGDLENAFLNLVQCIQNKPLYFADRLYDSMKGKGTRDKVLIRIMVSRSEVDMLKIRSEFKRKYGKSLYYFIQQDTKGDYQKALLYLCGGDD

What was measured:
CCK2R = target: T1, CCK2R (Rattus norvegicus, UniProt P30553); test: Relative binding affinity, displacing binding of 125I-BH-CCK8 to CCK2R on AR42J cells; settings: amidated gastrins; FIG. 2
T1 construct: 125I-BH-CCK8 to CCK2R (ii) on AR42J cells; endogenous in cells; host or cells: AR42J cells
T1 sequence (P30553 1-452): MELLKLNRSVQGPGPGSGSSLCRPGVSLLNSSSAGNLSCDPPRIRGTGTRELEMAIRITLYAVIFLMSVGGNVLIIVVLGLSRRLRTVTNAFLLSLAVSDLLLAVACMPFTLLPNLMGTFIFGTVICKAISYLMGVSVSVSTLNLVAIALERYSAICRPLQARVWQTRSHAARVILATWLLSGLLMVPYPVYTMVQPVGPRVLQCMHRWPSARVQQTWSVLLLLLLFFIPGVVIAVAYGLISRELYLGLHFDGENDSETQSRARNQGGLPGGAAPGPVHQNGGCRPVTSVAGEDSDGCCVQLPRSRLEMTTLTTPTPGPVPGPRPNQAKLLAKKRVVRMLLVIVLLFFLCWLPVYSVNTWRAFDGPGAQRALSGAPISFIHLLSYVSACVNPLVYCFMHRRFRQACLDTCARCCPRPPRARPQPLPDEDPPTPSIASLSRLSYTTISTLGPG
Text: Plot points represent mean values of triplicate measurements from a representative experiment. The nM concentrations of each peptide used are presented in a log-scale on the x-axis; the excess unlabeled peptide used for displacing the binding of the radio-labeled ligand is presented in parentheses.
Relative binding affinity (RBA) of gastrins for the 36 kDa Anx A2 protein, prepared from cancer cells/tumor membranes was in the order of PG>G-Gly>G17, with no affinity for cholecystokinin CCK8 (28). […] Adenoma and adenocarcinomas tissue sections (from ovarian and colorectal cancers of patients) were positive for Anx A2 expression, while normal tissues were negative (FIGS. 4, 5A-5B). Immortalized intestinal epithelial cell line (IEC-18) are used, which responds to the growth and anti-apoptotic effects of PG peptides (9), for further investigating the biology of interaction of PG with Anx A2. Intra-cellular translocation of labeled PG was examined in IEC-18 cells. […] Using fluoroscense assisted sorting with labeled anti-Anx A2-Abs, presence of extracellular Anx A2 was confirmed on IEC-18 cells (FIG. 6B).

Anx A2 = target: T2, Anx A2 (Rattus norvegicus, UniProt Q07936); settings: Anx A2 prepared from cancer cells/tumor membranes; cited from earlier work
T2 construct: the 36 kDa Anx A2 protein, prepared from cancer cells/tumor membranes; endogenous in cells

| affinity for CCK2R (CCK2R) | Substance | Relative binding affinity (RBA) for the 36 kDa Anx A2 protein, rank order (Anx A2) |
| --- | --- | --- |
| much higher affinity | G34: amidated gastrin (QLGPQGPPHLVADPSKKQGPWLEEEEEAYGWMDF; Big gastrin C-terminal amide; UniProt P01350 59-92, looked up) |  |
| much higher affinity | G17: amidated gastrin (QGPWLEEEEEAYGWMDF) [reference compound] | PG>G-Gly>G17 |
